Assays:
Vps34 = biological target: T1, Vps34 (Homo sapiens, UniProt Q8NEB9); assay: ADP-glo biochemical assay; settings: relative to PI3Kδ IC50
T1 construct: purchased Invitrogen

The chains behind the UniProt entries cited, without tags or fusion partners. Where a name states a change or a piece, a line headed by the entry shows the natural chain unless it says otherwise.
UniProt Q8NEB9, whole entry: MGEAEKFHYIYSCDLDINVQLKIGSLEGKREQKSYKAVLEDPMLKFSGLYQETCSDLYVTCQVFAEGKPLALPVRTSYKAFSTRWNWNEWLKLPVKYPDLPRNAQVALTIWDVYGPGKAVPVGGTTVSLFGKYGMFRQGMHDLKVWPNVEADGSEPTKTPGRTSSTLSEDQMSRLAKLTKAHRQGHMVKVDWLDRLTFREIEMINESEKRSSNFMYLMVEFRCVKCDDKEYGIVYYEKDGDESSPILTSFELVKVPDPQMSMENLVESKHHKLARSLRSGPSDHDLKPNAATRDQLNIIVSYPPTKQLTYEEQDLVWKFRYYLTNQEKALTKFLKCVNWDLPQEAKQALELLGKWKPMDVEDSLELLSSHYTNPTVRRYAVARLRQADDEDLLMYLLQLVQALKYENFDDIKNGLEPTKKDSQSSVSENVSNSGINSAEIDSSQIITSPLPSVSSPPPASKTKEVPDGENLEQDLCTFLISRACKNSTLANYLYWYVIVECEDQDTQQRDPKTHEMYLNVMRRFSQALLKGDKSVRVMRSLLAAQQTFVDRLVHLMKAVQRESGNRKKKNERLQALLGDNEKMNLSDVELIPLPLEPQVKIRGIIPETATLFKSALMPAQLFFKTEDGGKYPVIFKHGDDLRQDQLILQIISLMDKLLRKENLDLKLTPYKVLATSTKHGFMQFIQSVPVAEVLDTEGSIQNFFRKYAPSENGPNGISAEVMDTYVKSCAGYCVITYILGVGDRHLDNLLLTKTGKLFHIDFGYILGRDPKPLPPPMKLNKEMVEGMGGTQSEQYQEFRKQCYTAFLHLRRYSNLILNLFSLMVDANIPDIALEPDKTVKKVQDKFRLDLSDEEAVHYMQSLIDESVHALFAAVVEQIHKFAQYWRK
UniProt P48736: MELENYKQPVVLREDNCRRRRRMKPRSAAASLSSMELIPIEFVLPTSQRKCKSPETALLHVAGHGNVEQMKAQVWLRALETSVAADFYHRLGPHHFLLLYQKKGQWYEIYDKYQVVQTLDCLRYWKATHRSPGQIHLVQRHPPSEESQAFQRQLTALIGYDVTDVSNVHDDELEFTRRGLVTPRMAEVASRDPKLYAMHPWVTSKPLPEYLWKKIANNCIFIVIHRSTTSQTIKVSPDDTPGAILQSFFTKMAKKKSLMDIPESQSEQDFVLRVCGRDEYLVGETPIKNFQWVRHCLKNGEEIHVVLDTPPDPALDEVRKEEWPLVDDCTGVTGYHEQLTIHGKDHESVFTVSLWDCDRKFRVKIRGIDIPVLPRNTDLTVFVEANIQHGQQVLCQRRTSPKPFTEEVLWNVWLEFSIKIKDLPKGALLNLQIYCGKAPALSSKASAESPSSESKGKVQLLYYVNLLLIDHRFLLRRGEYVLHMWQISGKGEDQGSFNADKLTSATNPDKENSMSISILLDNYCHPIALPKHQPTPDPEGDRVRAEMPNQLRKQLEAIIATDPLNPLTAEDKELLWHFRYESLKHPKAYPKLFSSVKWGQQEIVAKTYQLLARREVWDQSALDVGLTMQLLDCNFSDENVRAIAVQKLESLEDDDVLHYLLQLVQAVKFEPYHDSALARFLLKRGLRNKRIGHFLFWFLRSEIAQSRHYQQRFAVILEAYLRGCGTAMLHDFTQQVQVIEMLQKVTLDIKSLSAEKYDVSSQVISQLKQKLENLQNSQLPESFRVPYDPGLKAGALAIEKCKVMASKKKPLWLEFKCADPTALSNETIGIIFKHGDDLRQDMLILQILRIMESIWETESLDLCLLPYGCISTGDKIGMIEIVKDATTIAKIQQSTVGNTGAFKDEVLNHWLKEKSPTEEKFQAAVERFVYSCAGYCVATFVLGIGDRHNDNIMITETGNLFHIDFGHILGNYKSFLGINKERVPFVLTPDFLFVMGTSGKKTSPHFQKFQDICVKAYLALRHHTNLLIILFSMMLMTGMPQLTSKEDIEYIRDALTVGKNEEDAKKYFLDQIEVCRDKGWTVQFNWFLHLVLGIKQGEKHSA
UniProt Q9UBF8: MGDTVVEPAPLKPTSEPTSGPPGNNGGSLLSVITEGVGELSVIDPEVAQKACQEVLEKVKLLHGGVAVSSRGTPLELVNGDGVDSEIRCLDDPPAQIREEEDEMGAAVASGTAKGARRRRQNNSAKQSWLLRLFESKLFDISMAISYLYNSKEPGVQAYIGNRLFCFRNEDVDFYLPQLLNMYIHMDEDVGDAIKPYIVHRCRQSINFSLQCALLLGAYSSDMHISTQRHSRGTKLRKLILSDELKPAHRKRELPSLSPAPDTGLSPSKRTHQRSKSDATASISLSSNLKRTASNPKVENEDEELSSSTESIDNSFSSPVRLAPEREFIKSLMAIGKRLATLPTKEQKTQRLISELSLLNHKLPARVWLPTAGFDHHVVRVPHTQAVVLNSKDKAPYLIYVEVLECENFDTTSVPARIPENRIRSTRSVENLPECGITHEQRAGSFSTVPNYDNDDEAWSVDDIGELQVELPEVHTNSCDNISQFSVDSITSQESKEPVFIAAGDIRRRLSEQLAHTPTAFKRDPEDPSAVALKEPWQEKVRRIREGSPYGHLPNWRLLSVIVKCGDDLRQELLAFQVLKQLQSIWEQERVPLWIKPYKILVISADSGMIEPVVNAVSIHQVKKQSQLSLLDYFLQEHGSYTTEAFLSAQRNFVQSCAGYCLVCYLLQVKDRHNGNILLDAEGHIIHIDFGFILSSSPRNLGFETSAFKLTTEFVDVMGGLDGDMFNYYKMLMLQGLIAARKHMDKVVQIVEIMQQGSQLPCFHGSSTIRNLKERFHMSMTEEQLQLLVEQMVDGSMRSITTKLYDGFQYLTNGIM
UniProt P42338: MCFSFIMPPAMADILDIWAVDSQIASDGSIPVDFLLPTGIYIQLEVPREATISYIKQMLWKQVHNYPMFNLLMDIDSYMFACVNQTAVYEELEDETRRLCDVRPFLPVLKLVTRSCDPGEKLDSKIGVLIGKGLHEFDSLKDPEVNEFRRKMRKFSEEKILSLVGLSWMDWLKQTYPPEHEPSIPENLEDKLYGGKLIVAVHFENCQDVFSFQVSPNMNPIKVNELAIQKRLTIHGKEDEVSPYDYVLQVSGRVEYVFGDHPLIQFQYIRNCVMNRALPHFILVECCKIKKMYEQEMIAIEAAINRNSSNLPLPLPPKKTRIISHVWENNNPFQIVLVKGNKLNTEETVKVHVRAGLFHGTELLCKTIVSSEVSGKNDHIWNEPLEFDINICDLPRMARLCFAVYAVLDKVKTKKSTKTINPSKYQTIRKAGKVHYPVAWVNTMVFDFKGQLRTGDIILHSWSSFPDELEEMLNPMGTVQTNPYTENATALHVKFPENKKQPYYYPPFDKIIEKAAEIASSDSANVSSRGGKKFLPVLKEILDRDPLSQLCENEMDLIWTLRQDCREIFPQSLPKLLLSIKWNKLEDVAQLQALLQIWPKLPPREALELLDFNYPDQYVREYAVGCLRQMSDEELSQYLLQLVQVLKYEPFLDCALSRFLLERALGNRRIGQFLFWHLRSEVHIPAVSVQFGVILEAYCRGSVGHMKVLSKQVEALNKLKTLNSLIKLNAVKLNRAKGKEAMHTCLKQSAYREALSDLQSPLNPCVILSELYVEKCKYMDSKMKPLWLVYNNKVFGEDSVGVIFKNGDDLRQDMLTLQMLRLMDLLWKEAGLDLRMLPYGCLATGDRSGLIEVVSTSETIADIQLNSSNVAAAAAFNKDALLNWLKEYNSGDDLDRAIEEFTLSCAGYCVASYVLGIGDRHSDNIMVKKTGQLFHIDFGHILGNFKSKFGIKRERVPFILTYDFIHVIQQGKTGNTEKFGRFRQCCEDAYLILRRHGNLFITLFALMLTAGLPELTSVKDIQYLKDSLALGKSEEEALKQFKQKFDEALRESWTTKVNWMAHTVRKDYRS

PI3Kγ = PI3Kγ (Homo sapiens, UniProt P48736); settings: relative to PI3Kδ IC50
panel of 456 kinases = assay: DiscoveRx KinomeScan kinome selectivity; type: binding; settings: concentration of 1mM
PI4KB = biological target: T2, PI4KB (Homo sapiens, UniProt Q9UBF8); assay: ADP-glo biochemical assay; settings: relative to PI3Kδ IC50
T2 construct: purchased Invitrogen

PI3Kβ [1] = biological target: T3, PI3Kβ (Homo sapiens, UniProt P42338); settings: relative to PI3Kδ IC50
PI3Kβ [2] = biological target: T3, PI3Kβ; assay: biochemical

For `Cc1nc(NC(=O)[C@@H](N)C(C)C)sc1-c1cnc(Cl)c(NS(=O)(=O)c2ccccc2)c1` [PI3KD-IN-015], the “fold selectivity against Vps34” value (Vps34) was 56 fold, the “fold selectivity against PI3Kγ” value (PI3Kγ) was 25 fold and the kinome wide selectivity (panel of 456 kinases) was “did not target any other protein kinases except for a few lipid kinases”. For the same compound, the “fold selectivity against PI4KB” value (PI4KB) was 34 fold, the “fold selectivity against PI3Kβ” value (PI3Kβ [1]) was 20 fold and the IC50 (PI3Kβ [2]) was 100 nM.
